## scFv variants of Ab-14 (light chain) against a SARS-CoV-2 spike peptide

Values reported by Li et al. 2023, doi:10.1038/s41467-023-39022-2 (FLAb copy).

Target: peptide PDVDLGDISGINAS, taken from heptad repeat 2 (HR2) of SARS-CoV-2 spike.

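Phage display of a naive human antibody library on the peptide gave the parent. These sequences belong to a second round, designed from the earlier measurements on random variants of the parent. Group labels follow the data file (En: ensemble of fine-tuned language models; GP: Gaussian process model; HC: hill climbing; Gen: genetic algorithm; Gibbs: Gibbs sampling; a sequence that several methods proposed may carry one label only). Affinity was read by AlphaSeq, a pooled yeast mating assay with surface-displayed partners. Pairs that bind mate more often; barcode pairs of the diploids are counted by sequencing. Each replicate has its own calibration line, from reference interactions of the BCL2 family. Mating was done six times.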

Each scFv is VH, three GGGGS repeats, VL, as in the parent Ab-14, and differs from it in the CDRs of the light chain only.
VH: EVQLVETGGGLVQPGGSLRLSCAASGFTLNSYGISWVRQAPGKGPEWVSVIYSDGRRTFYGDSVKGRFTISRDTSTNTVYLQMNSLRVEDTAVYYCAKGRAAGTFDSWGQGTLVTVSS
VL: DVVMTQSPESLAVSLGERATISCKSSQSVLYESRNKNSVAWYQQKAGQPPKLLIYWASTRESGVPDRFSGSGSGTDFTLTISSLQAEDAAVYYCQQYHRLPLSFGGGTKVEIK

The parent's light chain CDRs are KSSQSVLYESRNKNSVA, WASTRES, QQYHRLPLS; each variant's own CDRs replace them letter for letter.
Variants here have more than six changes.
Scale: log10 of Kd in nM, estimated from mating counts; low values are strong binders.
A pair that was not seen in that replicate is written "nd"; this usually means weak binding, but a binder can also be missed.
Empty control strains, which show no peptide, gave a signal in 4% of pairings with all light chain designs; the median was 2.64 and 95% of these signals were weaker than 1.59. No background was subtracted.
Values of this round are not directly comparable with the first-round values of the same sequences.
In the paper, a design with two or fewer of six values counts as a poor binder.

* HMSMLTLGGMRHRNSVA / QMTTREN / QQYDRLPLS [En_Gen]: 0.78, 1.02, 0.99, 0.98, 1.28, 1.10
* KLQGSVGYEERNKNSVA / GASQRED / QQYHRLPLS [GP_Gibbs]: 0.19, 0.06, -0.10, -0.09, -0.25, 0.28
* KLSQSWLYKSRNANSVA / NASQREE / QQYHRLPLS [GP_Gibbs]: 0.15, -0.11, 0.03, -0.24, -0.06, 0.27
* KISMSYRYESEEKNSIA / EMTTREE / QSYHRLPLS [En_HC]: 1.59, nd, nd, 1.30, 2.44, 2.20
* KLSMGHDYESRNKNSVA / QASTREW / QQYHRLPLS [GP_Gibbs]: 1.82, 1.93, 1.28, 2.00, 1.53, 1.80
* TISQMFLGEYRNRNSVA / QASTRES / QSYDRLPLS [En_HC]: -0.02, -0.14, -0.26, -0.45, -0.47, 0.01
* TISQMMQLFSQTINNVA / EVSTREE / QQYDRLPLM [En_Gen]: 0.81, 0.86, 0.59, 0.89, 1.93, 0.80
* QLLMATWQGTYNRNSVA / HAETRED / QSYHRLPLS [En_HC]: 1.77, 2.21, 1.76, 2.56, 1.49, 1.74
* KISQSVWMESCNVNNVA / NASTRED / QQYHRLPLS [GP_Gibbs]: 0.61, 0.51, 0.66, 0.62, 0.42, 0.70
* DMTVQFNGASKIQNSVA / HGVEKID / QQYSRLPLA [En_Gibbs]: 0.24, 0.01, 0.05, -0.05, 0.17, -0.07
* TLVGNIQGGGWAKKSVA / DAVQRVN / QQYYRLPLS [En_Gibbs]: -0.12, 0.02, -0.11, -0.39, -0.06, 0.42
* KMQQSEGMESRNVNSVA / HASLRLE / QQYHRLPLS [GP_Gibbs]: 0.89, 0.56, 0.52, 0.77, 0.23, 0.45
* HAYQSGLYEQRVKNSVA / SASMRES / QQYHRLPLS [GP_Gibbs]: 1.42, 1.58, 1.75, 1.24, 1.44, 1.97
* HMSMLTLMGQRHVNSVA / QMTTREN / QQYDRLPLS [En_Gen]: 0.92, 0.83, 0.70, 0.81, 1.07, 0.87
* KVSQMWLYESRNCNSVA / NASQREE / QQYHRLPLS [GP_Gibbs]: 0.24, 0.41, 0.32, -0.06, 0.30, 0.69
* TIGQTLMAGIRNRSNVA / EVSERLN / QQYDRLPLI [En_Gen]: 2.03, 1.72, 2.49, 2.68, 2.11, 2.02
* MIGGAMKSQSAHRNSVA / DMTNREN / QQYDRLPLS [En_Gen]: 0.47, 0.58, 0.32, 0.36, 0.35, 0.59
* HISMLTLQGMRHRNSVA / QMTTREN / QQYDRLPLA [En_Gen]: 0.67, 0.65, 0.65, 0.74, 0.75, 0.94
* MFSQGVMVGWLTRNSVA / NSETREN / QQYDRLPLS [En_HC]: 1.24, 1.42, 1.12, 0.67, 1.29, 1.37
* KVVQSVNGLQRAKNSVA / EASTRES / QQYHRLPLS [GP_Gibbs]: 0.90, 1.05, 0.66, 0.52, 0.90, 0.76
* HFQQSVPYESRNFNSVA / NASLRFS / QQYHRLPLS [GP_Gibbs]: 1.25, 1.49, 1.57, 1.30, 1.52, 1.59
* KLSQVTHSESRNKNSIA / EMVTREV / QQYDRLPLI [En_HC]: 2.07, 1.11, 0.85, 1.53, 0.96, 2.54
* TISQSAQQEMHNKNSVA / DLNVRGS / QQYDRLPLS [En_HC]: 0.62, 0.82, 0.30, 0.28, 0.60, 0.74
* MLSEMLHMLGAKKNSIA / DLVMRAN / QQYHRLPLF [En_Gen]: 0.03, 0.84, 1.57, -0.11, 0.41, 0.89
* HMSMLSLMGSRNRNSVA / QMTTREN / QQYDRLPLI [En_Gen]: 1.89, 0.77, 0.94, 1.07, 0.89, 0.91
* HMSMLTLQGMRHKNSVA / QMTTREN / QQYDHLPLA [En_Gen]: 1.58, 1.69, 1.35, 1.29, 1.13, 2.08
* KLSMLMDTTQKNHNSVA / HVQTRQD / QQYNHLPLS [En_Gen]: 0.78, 0.56, 0.99, 0.42, 0.72, 0.43
* KVSEFMRGLMMRTDSIA / DNQTRES / QQYDRLPLS [En_Gen]: nd, 2.30, nd, 3.64, 3.22, nd
* KLQQSQLYESRNQNSVA / QASQREV / QQYHRLPLS [GP_Gibbs]: -0.04, -0.32, -0.34, -0.37, -0.39, -0.50
* KLSQSWLYLSRNHNAVA / EASQRLS / QDYHRLPLS [GP_Gibbs]: 0.08, -0.20, -0.08, -0.18, -0.01, -0.04
* RITYKAEQLERINSSVA / NGSARCF / QQYFMLPLS [En_Gibbs]: 2.72, 1.68, 2.17, 2.71, 1.74, 2.73
* TISQSTYWETFNKNSVA / QTSTREE / QDYDRLPLS [En_HC]: nd, 2.91, 3.18, 2.97, 2.52, 2.36
* SLAESAHLESRNKNSVA / DNTTREY / QHYDRLPLS [En_HC]: 4.13, nd, 2.57, nd, nd, 3.07
* KLGAATRFESSNQASIA / NNSTREE / QQYHRLPLS [En_HC]: 1.07, 1.00, 0.93, 0.87, 0.88, 1.10
* KLQQSNLYESRNTNSVA / QASQREQ / QQYHRLPLS [GP_Gibbs]: -0.11, 0.26, 0.00, -0.23, 0.14, 0.11
* IISQSVMFEQTLINSVA / NAQTRES / QQYHRLPLS [En_HC]: 1.07, 0.86, 1.00, 1.07, 1.05, 0.83
* TFDTGYRFGALNTDSIA / HAEMRVA / QMYYRLPLT [En_Gibbs]: nd, nd, 0.42, nd, nd, nd
* KMAQGWEYESRNKNSVA / NASVREE / QQYHRLPLS [GP_Gibbs]: 1.36, 0.29, 0.67, 0.65, 1.13, 0.93
* KVSEFMKGLMSRQDSIA / DNNTRGS / QQYDRLPLS [En_Gen]: 1.48, 1.49, 1.94, 1.86, 2.76, 1.74
* TLQDWGIYGMENGNRIA / ERSKLEW / QQYGRLPLS [En_Gibbs]: 0.46, 0.47, 1.05, 0.51, 1.29, 0.04
* ALSQSMDMTSRNVNSVA / DLTTRGN / QQYHRLPLS [En_HC]: 0.51, 0.57, 0.23, 0.14, 0.16, 0.62